UUG fidelity = modulators of yeast start codon fidelity, primary screen, whole organism, S. cerevisiae, single point, plate reader | AID 602363, 2012 | S. cerevisiae UUG-firefly luciferase reporter, luminescence/redox ratio | activity score, % at 18.7 µM | hit rate 0.13% among 350,000;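 active = replicate mean at a twofold rise or more, about +100% in these data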;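 also: firefly luciferase made from a UUG start codon reports start codon fidelity; reporter light over untreated wells divided by growth signal over untreated wells; some hits fall short of that in this replicate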
NR1D1 modulator = modulators of Rev-erb alpha DNA binding, primary screen, biochemical, FITC-DNA, fluorescence polarization, uHTS; activity, % at 10 µM; hit rate 0.79% among 370,000; Rev-erbα–FITC-DNA binding, 90 min;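 active means activity above about 14%, limit read from the data; passing the limit was not always enough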
PDI inh = inhibitors of human PDI, primary screen, biochemical, turbidity, single point, plate reader | Protein disulfide-isomerase (Homo sapiens), P07237 | PDI insulin aggregation turbidity, A650, 90 min | inhibition, % at 10 µM | hit rate 0.052% among 350,000 | AID 588391, 2011;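 active means mean inhibition across replicates of 30% or more, whatever share of single replicates reach that level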
SMARCA2 activ = SMARCA2 (BRM) function activators, primary screen, cell-based, luminescence, high throughput; hit rate 1% among 370,000; activation, % at 9.1 µM; AID 652017, 2013; MG213 cells, MMTV-luciferase reporter, dexamethasone, overnight; in the data active means activation above about 7.8%
ERp5 block = inhibitors of ERp5-driven insulin aggregation, primary screen, biochemical, turbidity, absorbance 650 nm, single point. Protein disulfide-isomerase A6 (Homo sapiens), Q15084. 90 min. inhibition, % at 9.99 µM. hit rate 0.05% among 350,000;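 active means mean replicate inhibition above about 25%, with every replicate also reaching it, limit read from the data, passing the limit was not always enough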
GSIS activator = GLuc luminescence reporter in INS-1E cells, primary screen for activators of glucose-dependent secretion of insulin | hit rate 0.61% among 370,000 | AID 743287, 2014 | activation, % at 16.6 µM | INS-1E GLuc reporter insulin secretion, 2-3 h;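 active means lowest replicate activation of at least 40%, so every replicate reaches that level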
A number is an active result; i = inactive; nt = not tested or not shown. The list is not random: actives were taken first. Their share in the collection is about 2.1%.

SMILES	UUG fidelity	NR1D1 modulator	PDI inh	SMARCA2 activ	ERp5 block	GSIS activator
C=CCOC(=O)[C@@H]1[C@H]2C(=O)O[C@H](c3ccccc3)[C@H](c3ccccc3)N2[C@H](c2ccc(OCCOC(=O)[C@@H]3C[C@@H]4C(=O)N[C@@H](Cc5ccccc5)C(=O)N4[C@@H]3c3ccc(O)cc3)cc2)[C@@]12C(=O)Nc1ccc(I)cc12	i	nt	nt	nt	i	nt
Cc1cccc(NC(=O)C2CCCN2C(=O)OCC(C)C)c1 (stereo not drawn)	i	i	i	i	nt	nt
CC(C)COC(=O)N1C[C@H](O)C[C@H]1C(=O)Nc1ccc(Cl)cc1	i	i	i	i	i	119.9
CN1C(=O)c2cc(NC(=O)Cc3ccccc3)ccc2OC[C@@H]2O[C@H](CC(=O)O)CC[C@H]21	i	nt	nt	nt	i	i
CCCCCc1cc(=O)oc2c(C(CCN3CCCC(C)C3)c3cc(OC)c(OC)c(OC)c3)c(OC)cc(OC)c12 (stereo not drawn)	i	nt	i	nt	nt	nt
CCCCCc1cc(=O)oc2c(C(CCN3CCCCC3)c3cc(OC)c(OC)c(OC)c3)c(OC)cc(OC)c12 (stereo not drawn)	i	i	i	i	i	58.9
C[C@@H]1CCCCO[C@H](CN(C)CC2CC2)[C@H](C)CN([C@@H](C)CO)C(=O)c2cc(NS(=O)(=O)c3cccs3)ccc2O1	nt	nt	nt	nt	i	i
O=C(NC1CCCC1)c1ccc(Cl)c(S(=O)(=O)N2CCOCC2)c1	i	i	i	i	i	46.7
Cc1ccc(C(=O)NC2CCCCCCC2)cc1S(=O)(=O)N1CCOCC1	i	i	i	i	i	i
C[C@@H]1CN([C@@H](C)CO)C(=O)c2cc(NC(=O)C3CCCCC3)ccc2O[C@@H]1CN(C)C(=O)Nc1ccccc1	i	nt	nt	nt	i	i
Cc1noc(C)c1NC(=O)Nc1ccc2c(c1)CC(=O)N([C@H](C)CO)C[C@@H](C)[C@@H](CN(C)C(=O)Nc1ccccc1)O2	i	nt	nt	nt	i	i
CN1CCN(C(=O)C[C@@H]2C[C@@H]3c4cc(NC(=O)C5CCOCC5)ccc4O[C@@H]3[C@@H](CO)O2)CC1	i	nt	nt	nt	i	i
COc1ccc(NC(=O)C2=Cc3cccc(OC)c3OC2)cc1	nt	i	i	7.8	i	i
CCOc1ccc(CN2C(=O)c3ccccc3C2=O)cc1C(=O)Nc1nnc(SCC)s1	i	i	i	i	nt	44.5
CCOc1ccccc1C(=O)Nc1nnc(SCC(=O)N2CCCC2)s1	i	i	i	i	i	i
COCCOc1ccc(C(F)(F)F)cc1NC(=O)c1ccccc1F	nt	i	i	i	nt	50.3
CCCNC(=O)N(C)C[C@H]1Oc2cc(-c3cccnc3)ccc2S(=O)(=O)N([C@H](C)CO)C[C@H]1C	i	nt	nt	nt	i	i
O[C@H](CNC[C@@H](O)[C@H]1CCc2cc(F)ccc2O1)[C@@H]1CCc2cc(F)ccc2O1	nt	i	nt	nt	nt	nt
CN(C)c1nc2sc3c(c2c(=O)n1C)CC(C)(C)OC3	i	i	i	i	nt	i
CCCCn1c(=O)n(C)c(=O)c2c3c(sc21)COC(C)(C)C3	i	i	i	i	nt	44.9
COc1cccc(-c2nc(NCc3ccccc3)c3ccccc3n2)c1O	i	i	i	i	i	i
COc1cccc(-c2nc(NCc3ccco3)c3ccccc3n2)c1O	i	i	i	i	nt	75.6
COc1ccccc1C(=O)N/N=C(\C)CC(=O)Nc1ccc2c(c1)OCCO2	i	i	i	i	i	40.8
Cc1ccc(NC(=O)CN(C)C(=O)COc2cccc3cccnc23)cc1	nt	i	i	i	nt	40.2
CCCCNc1c(-c2ccc(SC3CCCCC3)cc2)nc2ccccn12	i	i	i	7.9	i	i
SMILES	UUG fidelity	NR1D1 modulator	PDI inh	SMARCA2 activ	ERp5 block	GSIS activator
CCCC(=O)N1CC2(C1)CN(C(=O)C1CCCCC1)[C@H](CO)c1[nH]c3cc(OC)ccc3c12	nt	nt	nt	nt	35.6	i
COc1ccc2c3c([nH]c2c1)[C@H](CO)N(C(=O)NC(C)C)CC31CN(C(=O)C2CCCC2)C1	nt	nt	nt	nt	66.9	i
COc1ccc2c3c([nH]c2c1)[C@H](CO)N(C(=O)C1CCCC1)CC31CCN(C(=O)NC(C)C)CC1	nt	nt	nt	nt	i	i
COc1ccc2c3c([nH]c2c1)[C@@H](CO)N(C(=O)C1CCCC1)CC31CCN(C(=O)NC(C)C)CC1	nt	nt	nt	nt	26.7	i
COCC(=O)N1CCC2(CC1)CN(Cc1ccccc1F)[C@H](CO)c1[nH]c3cc(OC)ccc3c12	nt	nt	nt	nt	i	i
COCC(=O)N1CC2(C1)CN(Cc1ccccc1F)[C@H](CO)c1[nH]c3cc(OC)ccc3c12	nt	nt	nt	nt	33.6	i
C=C(C)Cn1c(SCC#N)nc2ccccc2c1=O	i	i	i	i	nt	nt
N#CCSc1nc2ccccc2c(=O)n1CC1CCCC1	i	i	i	i	i	43.7
CC(=O)Nc1nc(C)c(-c2csc(Nc3cccc([N+](=O)[O-])c3)n2)s1	i	i	i	i	nt	134.1
Cc1ccc(S(=O)(=O)C=CS(=O)(=O)c2ccc(C)cc2)cc1	i	i	i	i	31.5	87.4
O=c1c2ccccc2sn1-c1cc(S(=O)(=O)N2CCOCC2)ccc1N1CCOCC1	i	i	i	i	nt	208.2
CCNc1nc(NOC)nc(OCC#N)n1	nt	i	i	i	i	46.7
CCNc1nc(NCC)nc(OCC(=O)O)n1	nt	i	i	i	i	i
C[C@H](CO)N1C[C@H](C)[C@H](CN(C)Cc2ccc(C(F)(F)F)cc2)Oc2ccc(NC(=O)Cn3cnnn3)cc2CC1=O	i	nt	nt	nt	i	i
Cc1cc(CCNC=O)c(C)c2c1oc1ccccc12	nt	i	i	i	i	57.1
C=CCn1c(N2CCCCCC2)nc2c1c(=O)n(C)c(=O)n2C	i	nt	i	nt	nt	nt
C/C(Cl)=C\Cn1c(N2CCCC2)nc2c1c(=O)n(C)c(=O)n2C	i	i	i	i	i	64.6
O=C(NCc1ccccc1)c1ccc(C(=O)N(C2CCCCC2)C2CCCCC2)cc1	i	i	i	i	nt	nt
O=C(C(=O)N(C1CCCCC1)C1CCCCC1)c1ccccc1	nt	i	nt	i	i	72.8
CCCC#Cc1ccc([C@H]2[C@@H](CO)N3C(=O)CN(C(=O)Nc4ccccc4)C[C@@H]23)cc1	nt	nt	nt	nt	i	i
O=S(=O)(N[C@H]1CC[C@H](CCn2cc(C3(O)CCCC3)nn2)O[C@H]1CO)c1ccccc1	i	nt	nt	nt	i	i
CN[C@H]1C[C@@H](c2ccccc2)N(C(C)=O)C[C@H]1CO	i	i	nt	i	i	41.6
O=[N+]([O-])c1ccc(S(=O)(=O)c2ccccc2)nc1	i	i	i	i	i	76.6
Cc1ccc(S(=O)(=O)c2ccc([N+](=O)[O-])cn2)cc1	i	i	i	i	i	45.4
C[C@@H]1CCCCO[C@@H](CN(C)S(=O)(=O)c2ccccc2)[C@H](C)CN([C@@H](C)CO)C(=O)c2cc(NS(=O)(=O)c3cccs3)ccc2O1	i	nt	nt	nt	i	i

Bioassay records: PubChem BioAssay, several laboratories
